{"source": "paper PMC9370035", "about": "“Identification of 3-Oxindole Derivatives as Small Molecule HIV-1 Inhibitors Targeting Tat-Mediated Viral Transcription” (Molecules, 2022)", "data": [{"tested_on": "HIV-1NL4-3", "test": "HIV-1 infectivity assay in TZM-bl cells (F-Luc under HIV-1 LTR)", "type": "cell-based", "excerpt": "TZM-bl cells (also referred as JC53BL-13) expressing human CD4, CXCR4, and CCR5 in order to facilitate HIV-1 infection, which contain the firefly luciferase (F-Luc) gene under the control of HIV-1 long terminal repeat (LTR) promoter was used to determine inhibitory effect of the compounds on HIV-1 infection, as described previously with minor modifications. […] Without replacement of a culture medium, the cells were then infected with the HIV-1NL4-3 strain at a multiplicity of infection (MOI) of 1 to determine the exact inhibitory effect of compounds on a single round infection. After 48 h, the inhibitory effect of the compounds was determined using a Bright Glo luciferase assay kit (Promega). The infectivity data are presented as a percentage relative to the DMSO control (vehicle). The inhibitory effects of the compounds on viral replication were determined with some minor modifications, as described previously. […] PBMCs were pre-activated with phytohemagglutinin M (PHA-M) for 3 days. The pre-activated 4 × 10^5 of PBMCs were washed with fresh media to remove excess PHA-M and then infected with HIV-1NL4-3 or HIV-1AD8 as that of A3.01 infection.", "values": [{"smiles": "CCOC(=O)C1(C/C=C/Cl)Nc2cccc(C)c2C1=O", "note": "(stereo not shown) [Compound 6a, Ethyl (E)-2-(3-chloroallyl)-4-methyl-3-oxindole-2-carboxylate]", "SI (selectivity index, the ratio of IC50 to CC50)": 6.38}, {"smiles": "COC(=O)C1(C/C=C/Cl)Nc2cc(C)cc(C)c2C1=O", "note": "(stereo not shown) [Compound 6f, Methyl (E)-2-(3-chloroallyl)-4,6-dimethyl-3-oxindole-2-carboxylate]", "SI (selectivity index, the ratio of IC50 to CC50)": 111.37}, {"smiles": "COC(=O)C1(CC=C(Cl)Cl)Nc2cc(C)cc(C)c2C1=O", "note": "(stereo not shown) [Compound 6g, Methyl 2-(3,3-dichloroallyl)-4,6-dimethyl-3-oxindole-2-carboxylate]", "SI (selectivity index, the ratio of IC50 to CC50)": 34.19}, {"smiles": "O=C1Nc2ccc(Cl)cc2[C@@](C#CC2CC2)(C(F)(F)F)O1", "note": "[EFV, efavirenz, reference compound]", "SI (selectivity index, the ratio of IC50 to CC50)": ">683.86"}]}]}
